Data reported in paper PMC3651692 (Bioorganic & medicinal chemistry letters, 2013).
pKi: −log10 of the molar value.

Chains of the proteins cited; added tags and fusions are not shown. Lines headed by an entry give the natural chain unless they say otherwise; changes in a name come on top.
UniProt P41145: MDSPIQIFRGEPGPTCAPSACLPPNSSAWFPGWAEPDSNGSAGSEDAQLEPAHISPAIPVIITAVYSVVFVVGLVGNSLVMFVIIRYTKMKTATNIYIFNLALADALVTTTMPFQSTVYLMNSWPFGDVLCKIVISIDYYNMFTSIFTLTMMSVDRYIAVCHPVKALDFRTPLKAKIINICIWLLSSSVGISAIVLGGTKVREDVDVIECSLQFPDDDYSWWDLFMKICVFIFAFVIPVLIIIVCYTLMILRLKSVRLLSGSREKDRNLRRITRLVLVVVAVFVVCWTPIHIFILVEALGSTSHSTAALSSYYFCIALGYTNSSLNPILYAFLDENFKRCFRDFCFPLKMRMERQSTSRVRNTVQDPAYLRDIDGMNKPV
UniProt P35372, whole entry, species assumed: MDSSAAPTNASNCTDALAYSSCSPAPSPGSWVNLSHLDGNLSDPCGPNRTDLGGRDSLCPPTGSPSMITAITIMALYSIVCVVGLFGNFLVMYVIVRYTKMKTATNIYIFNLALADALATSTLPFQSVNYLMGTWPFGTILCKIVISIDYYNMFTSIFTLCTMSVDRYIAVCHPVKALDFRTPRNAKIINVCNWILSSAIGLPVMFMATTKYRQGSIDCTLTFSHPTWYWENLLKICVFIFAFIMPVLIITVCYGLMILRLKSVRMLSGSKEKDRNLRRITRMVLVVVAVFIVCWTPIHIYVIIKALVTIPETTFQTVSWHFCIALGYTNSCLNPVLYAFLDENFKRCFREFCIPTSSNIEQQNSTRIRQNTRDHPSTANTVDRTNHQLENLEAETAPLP

Columns and labels:
κ-opioid receptor (KOR) = κ-opioid receptor (KOR) (Homo sapiens, UniProt P41145); type: binding
μ-opioid receptor (MOR) = μ-opioid receptor (MOR) (Homo sapiens, UniProt P35372); type: binding; conditions: read-out: Affinities Ki± SD MOR

COC(=O)[C@@H]1C[C@H](OC(=O)CCC(=O)O)C(=O)[C@H]2[C@@]1(C)CC[C@H]1C(=O)O[C@H](c3ccoc3)C[C@]21C [Compound 11]
Selectivity DOR/KOR (κ-opioid receptor (KOR)): >2 | Selectivity MOR/KOR (κ-opioid receptor (KOR)): >2

COC(=O)[C@@H]1C[C@H](OC(C)=O)C(=O)[C@H]2[C@@]1(C)CC[C@H]1C(=O)O[C@H](c3ccoc3)C[C@]21C [Compound 1, salvinorin A, reference compound]
pKi (μ-opioid receptor (MOR)): < 5.00
